# Data reported in US11096979B2, “Pharmaceutical composition for preventing or treating liver diseases, containing licorice extract containing glycyrrhizin and liquiritin” (NOVAREX CO., LTD., priority 2016, dated 2021).
# Tested on: cultured hepatocytes (HepG2)
# Experiment: Cell viability of HepG2 cells treated with single components or t-BHP
# Details: HepG2, 3 hr and 24 hr after treatment, FIGS. 5A and 5B
smiles,measurement,value
"CC(C)(C)OO [t-BHP, t-butyl hydroperoxide]",hepatotoxicity depending on dose and treatment time,dose-dependent hepatotoxicity
